This test deals with T1, Stat3:hSIE complexes (Homo sapiens, UniProt P40763).
T1 construct: endogenous in cells; host or cells: HepG2
Nature of the test: Electrophoretic mobility shift assay (EMSA) with hSIE probe, extracts of IL-6-stimulated HepG2 cells. The test is classed as biochemical. The settings on record: 300 μM, 60 minutes at 37° C. Here is the method: Electrophoretic Mobility Shift Assay (EMSA): EMSA was performed using the hSIE radiolabeled duplex oligonucleotide as a probe as described (Tweardy et al., 1995). Briefly, high salt extracts were prepared from HepG2 cells incubated without or with IL-6 (30 ng/ml) for 30 minutes. Protein concentration was determined by Bradford Assay and 20 ug of extract was incubated with compound (300 uM) for 60 minutes at 37° C. […] Gels were dried and autoradiographed.

Protein sequences, listed by entry. Tags and fused reporters are not part of them. Residues count along the entry.
UniProt P40763, 2-770 limits assumed: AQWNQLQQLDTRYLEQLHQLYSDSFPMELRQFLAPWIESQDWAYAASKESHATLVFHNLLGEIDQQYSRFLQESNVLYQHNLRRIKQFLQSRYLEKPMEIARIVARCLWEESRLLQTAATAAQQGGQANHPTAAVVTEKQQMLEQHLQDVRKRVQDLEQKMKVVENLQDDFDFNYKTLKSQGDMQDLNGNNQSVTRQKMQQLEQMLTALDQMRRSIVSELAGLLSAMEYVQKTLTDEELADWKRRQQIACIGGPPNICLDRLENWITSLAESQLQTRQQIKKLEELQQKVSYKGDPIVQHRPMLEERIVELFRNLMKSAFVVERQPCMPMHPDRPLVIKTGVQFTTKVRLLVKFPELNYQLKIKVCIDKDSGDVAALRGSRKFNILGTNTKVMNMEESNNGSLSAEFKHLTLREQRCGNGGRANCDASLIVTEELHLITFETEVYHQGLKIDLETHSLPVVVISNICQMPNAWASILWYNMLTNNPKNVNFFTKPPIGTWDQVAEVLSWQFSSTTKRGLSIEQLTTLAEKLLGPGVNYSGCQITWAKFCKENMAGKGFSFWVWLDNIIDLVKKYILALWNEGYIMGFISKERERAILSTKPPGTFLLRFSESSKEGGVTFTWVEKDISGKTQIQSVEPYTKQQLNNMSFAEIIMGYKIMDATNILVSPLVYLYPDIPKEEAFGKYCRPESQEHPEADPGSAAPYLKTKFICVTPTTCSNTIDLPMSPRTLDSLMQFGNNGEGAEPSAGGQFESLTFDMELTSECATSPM

The record followed here is patent publication US20110312984A1, “STAT3 INHIBITORS” (priority 2008, published 2011).

Regarding `COC(=O)Cc1c(C)c2ccc(OCc3ccc(C(=O)OC)cc3)c(C)c2oc1=O` [Cpd3-7, methyl 4-({[3-(2-methyoxy-2-oxoethyl)-4,8-dimethyl-2-oxo-2H-chromen-7-yl]oxy}methyl)benzoate], the “amount of hSIE shifted (Stat3:hSIE band intensity)” value is reported as “reduced the amount of hSIE shifted by half or greater”.
